Experimental data taken from patent publication US9447050B2, “Solid forms of curcumin” (THE TRANSLATIONAL GENOMICS RESEARCH INSTITUTE, priority 2011, dated 2016).
Like-named read-outs stand apart in the source and are kept apart here.

Key:
Type in all cases: physicochemical
[1] = Dynamic vapor sorption (DVS); conditions: for XRPD post the DVS experiment (form change): after DVS; for water uptake (DVS): sorption 20-90% RH
Method: Approximately, 10 mg of sample was placed into a wire-mesh vapor sorption balance pan and loaded into a DVS-1 dynamic vapor sorption balance by Surface Measurement Systems. The sample was subjected to a ramping profile from 20-90% relative humidity (RH) at 10% increments, maintaining the sample at each step until a stable weight was achieved (99.5% step completion). After completion of the sorption cycle, the sample was then dried using the same procedure, but all the way down to 0% RH and finally taken back to the starting point of 20% RH. The weight change during the sorption/desorption cycles was then plotted, allowing for the hygroscopic nature of the sample to be determined.

[2] = Stability tests (80° C.; 40° C./75% RH; ambient light) read by XRPD
Method: XRPD analysis was carried out on a Siemens D5000, scanning the samples between 3 and 30 or 50 °2θ. For samples <100 mg, about 5 mg of sample was gently compressed onto a glass slide which fitted into the sample holder. For samples >100 mg; ca. 100 mg of sample was gently compressed into a plastic sample holder, so that the sample surface was smooth and just above the level of the sample holder. The sample was then loaded into the diffractometer running in reflection mode and analyzed, using the following experimental conditions—Raw Data Origin: Siemens-binary V2 (.RAW); Start Position [°2Th.]: 3.0000; End Position [°2Th.]: 30.000 or 50.000; Step Size [°2Th.]: 0.0200; Scan Step Time: [s] 0.8; Scan Type: Continuous; Offset [°2Th.]: 0.0000; Divergence Slit Type: Fixed; Divergence Slit Size [°]: 2.0000; Specimen Length [mm]: various; Receiving Slit Size [mm]: 0.2000; Measurement Temperature [° C.]: 20.00; Anode Material: Cu; K-Alpha1 [A]: 1.54060; K-Alpha2 [A]: 1.54443; K-Beta [A]: 1.39225; K-A2/K-A1 Ratio: 0.50000 (nominal); Generator Settings 40 mA, 40 kV; Diffractometer Type: D5000; Diffractometer Number: 0; Goniometer Radius [mm]: 217.50; Incident Beam Monochromator: No; Diffracted Beam Monochromator: Graphite; Spinning: No.

[3] = Slurrying in water; conditions: for solid form on slurrying in water (XRPD): water slurry
[4] = Intrinsic dissolution experiments; conditions: for % Dissolved: 1% solutol, 37° C.
Method: Approximately, 80-180 mg of each form was compressed into discs (or added as powders) by placing the material into a die (diameter: 13 mm) and compressing the die under 5 tons of pressure in a hydraulic press for about 2 minutes. The dissolution instrument, Sotax AT7 conformed to EP2 and USP2 in which paddles were used to stir the media. Each form was tested in 1% solutol solution (samples in 100% water had concentrations below the limit of detection of the system, therefore could not be quantified), in the stationary disc mode (i.e., discs were added at time=0 seconds and allowed to sink to the bottom of the media). Approximately 1 ml aliquots of media were extracted from the dissolution vessels at times 1, 5, 10, 15, 30, 60, 120, 240 minutes and 24 hours, and tested for API concentration by HPLC-UV. Dissolution curves were plotted and from the first 5 or 6 points on the curves the intrinsic dissolution rate curves were calculated. All tests were carried out at 37° C. and a paddle speed of 150 rpm.

[5] = Thermodynamic solubility studies

Substance: curcumin-2-aminobenzimidazole
- hygroscopicity (DVS) [1]: not hygroscopic
- XRPD post the DVS experiment (form change) [1]: no degradation or transformation had occurred
- water retained on the desorption cycle ([1]; desorption cycle): 0.2%
- water uptake (DVS) [1]: 0.8%
- 40° C./75% RH stability test (XRPD) [2]: no signs of form transformation, disproportionation, degradation or loss in crystallinity
- 80° C. stability test (XRPD) [2]: no signs of form transformation, disproportionation, degradation or loss in crystallinity
- ambient light stability test (XRPD) [2]: no signs of form transformation, disproportionation, degradation or loss in crystallinity
- solid form on slurrying in water (XRPD) [3]: no signs of form transformation, disproportionation, degradation or loss in crystallinity
- % Dissolved ([4]; timepoint 5 min): 0.869%
- % Dissolved ([4]; timepoint 10 min): 0.949%
- % Dissolved ([4]; timepoint 15 min): 0.994%
- % Dissolved ([4]; timepoint 30 min): 1.367%
- % Dissolved ([4]; timepoint 60 min): 2.123%
- % Dissolved ([4]; timepoint 120 min): 2.545%
- % Dissolved ([4]; timepoint 240 min): 3.616%
- % Dissolved ([4]; timepoint 1440 min): 13.936%

Substance: curcumin-L-lysine
- water uptake (DVS) between 20-70% RH [1]: 6.81%
- XRPD post the DVS experiment (form change) [1]: remains amorphous
- water uptake (DVS) [1]: 21.16%
- 40° C./75% RH stability test (XRPD) [2]: remained amorphous
- 80° C. stability test (XRPD) [2]: remained amorphous
- ambient light stability test (XRPD) [2]: remained amorphous
- pH of water slurry ([3]; after 1 hour): 9.53
- pH of water slurry ([3]; after 48 hours): 9.41
- solid form on slurrying in water (XRPD) [3]: remaining amorphous
- state of co-crystal in dissolution medium (XRPD of wafer remainder) ([4]; after 24 hours): dissociated in the dissolution medium
- solid form after thermodynamic solubility studies (XRPD) [5]: still predominantly amorphous
- thermodynamic solubility ([5]; 1% solutol): appeared to increase slightly
- thermodynamic solubility ([5]; various pH media): very low
- thermodynamic solubility ([5]; various pH media, listed as curcumin-L-lysine co-crystal): very poor solubility

Substance: curcumin-nicotinamide
- hygroscopicity (DVS) [1]: moderately/highly hygroscopic
- water uptake (DVS) between 20-70% RH [1]: about 5%
- XRPD post the DVS experiment (form change) [1]: no degradation or transformation had occurred
- hygroscopicity (DVS) ([1]; listed as curcumin-nicotinamide co-crystal): moderately hygroscopic
- water uptake (DVS) [1]: about 13%
- 40° C./75% RH stability test (XRPD) [2]: no signs of form transformation, disproportionation, degradation
- 80° C. stability test (XRPD) [2]: no signs of form transformation, disproportionation, degradation
- ambient light stability test (XRPD) [2]: no signs of form transformation, disproportionation, degradation
- solid form on slurrying in water (XRPD) [3]: a loss in crystallinity was observed as the time points increased
- intrinsic dissolution rate relative to curcumin-2-aminobenzimidazole co-crystal ([4]; 1% solutol solution): approximately two times greater
- % Dissolved ([4]; timepoint 5 min): 0.66%
- % Dissolved ([4]; timepoint 10 min): 0.906%
- % Dissolved ([4]; timepoint 15 min): 1.119%
- % Dissolved ([4]; timepoint 30 min): 1.705%
- % Dissolved ([4]; timepoint 60 min): 2.642%
- % Dissolved ([4]; timepoint 120 min): 3.510%
- % Dissolved ([4]; timepoint 240 min): 4.719%
- % Dissolved ([4]; timepoint 1440 min): 14.094%
